# Source: patent WO1994029351A2
# Experiments:
# [1] = molecular target: chimeric L243 human lgG4 (human) [IgG part: P01861]; assay: FITC C1q on antibody-coated JY cells, FACS; equilibrium dissociation constant after Krause et al.
# [2] = molecular target: FcγRIII on human peripheral blood mononuclear effector cells (human) (UniProt P08637); assay: cell-based or functional assay
Kd [1],Substance,ng/ml antibody necessary for half maximal cell killing in ADCC [2]
120 nM,Purified human C1q (Sigma UK) (from UniProt P02745 23-245; P02746 28-253; P02747 29-245),
,chimeric L243 human lgG1 wild type (from UniProt P01857 1-330; P01834 1-107) (antibody),5 ng/mL
